Patent US20250082635A1 (Janssen Pharmaceutica NV, priority 2023, published 2025)
Read-outs that look alike come from different tables or passages of the source.

Key:
[1] = for AUClast, Ratio of Geometric Means / AUC∞, Ratio of Geometric Means / Cmax, Ratio of Geometric Means / mean AUClast compared to normal hepatic function / AUClast compared to normal hepatic function, based on GMR / Cmax compared to normal hepatic function, based on GMR / AUC∞ compared to normal hepatic function, based on GMR: total; for mean AUClast compared to normal hepatic function / mean AUClast,unbound compared to normal hepatic function / mean AUC∞,unbound compared to normal hepatic function / mean Cmax,unbound compared to normal hepatic function: arithmetic means
clinical = conditions: both, human, in vivo, po, 10 mg
[2] = dose normalized moderate hepatic impairment (Cohort 3) versus normal hepatic function (Cohort 1)
[3] = dose normalized moderate hepatic impairment vs normal
[4] = mild hepatic impairment (Cohort 2) versus normal hepatic function (Cohort 1)
[5] = mild hepatic impairment vs normal

Row | Compound | AUClast, Ratio of Geometric Means [1, 2] [%] | AUC∞, Ratio of Geometric Means [1, 2] [%] | Cmax, Ratio of Geometric Means [1, 2] [%] | AUClast,unbound, Ratio of Geometric Means [1, 2] [%] | AUC∞,unbound, Ratio of Geometric Means [1, 2] [%] | Cmax,unbound, Ratio of Geometric Means [1, 2] [%] | mean AUClast compared to normal hepatic function [1, 3] | mean AUClast,unbound compared to normal hepatic function [1, 3] [fold] | mean AUC∞,unbound compared to normal hepatic function [1, 3] [fold] | AUClast compared to normal hepatic function, based on GMR [1, 3] [fold] | AUC∞,unbound compared to normal hepatic function, based on GMR [1, 3] [fold] | AUClast, Ratio of Geometric Means [1, 4] [%] | AUC∞, Ratio of Geometric Means [1, 4] [%] | Cmax, Ratio of Geometric Means [1, 4] [%] | AUClast,unbound, Ratio of Geometric Means [1, 4] [%] | AUC∞,unbound, Ratio of Geometric Means [1, 4] [%] | Cmax,unbound, Ratio of Geometric Means [1, 4] [%] | mean AUClast compared to normal hepatic function [1, 5] | mean AUClast,unbound compared to normal hepatic function [1, 5] [fold] | mean AUC∞,unbound compared to normal hepatic function [1, 5] [fold] | other results
1 | Cc1nc(N2CC3CN(C(=O)c4c(F)cccc4-n4nccn4)CC3C2)nc(C)c1O (stereo not shown) [M16] | 79.68 | 83.00 | 64.69 | 182.46 | 190.05 | 148.13 | 0.71 fold | 1.83 | 1.91 | ~0.80 | ~1.90 | 100.62 | 99.38 | 77.40 | 124.96 | 123.42 | 96.12 | comparable | 1.36 | 1.35 | mean Cmax,unbound compared to normal hepatic function [1, 3]: 1.58 fold; Cmax compared to normal hepatic function, based on GMR [1, 3]: approximately 0.65 fold; mean Cmax,unbound compared to normal hepatic function [1, 5]: comparable; AUClast compared to normal hepatic function, based on GMR [1, 5]: ~1.01 fold; AUC∞ compared to normal hepatic function, based on GMR [1, 5]: ~0.99 fold; Cmax compared to normal hepatic function, based on GMR [1, 5]: approximately 0.77 fold; AUC∞,unbound compared to normal hepatic function, based on GMR [1, 5]: ~1.23 fold
2 | Cc1cc(CO)nc(N2CC3CN(C(=O)c4c(F)cccc4-n4nccn4)CC3C2)n1 (stereo not shown) [M12] | 102.84 | 103.51 | 79.13 | 218.90 | 220.33 | 168.44 | comparable | 2.18 | 2.20 | ~1.03 | ~2.20 | 171.17 | 171.38 | 111.23 | 198.26 | 198.51 | 128.83 | 1.80 fold | 2.18 | 2.20 | AUC∞ compared to normal hepatic function, based on GMR [1, 3]: ~1.04 fold; AUClast,unbound compared to normal hepatic function, based on GMR [1, 3]: ~2.19 fold; Cmax,unbound compared to normal hepatic function, based on GMR [1, 3]: ~1.68 fold; AUClast compared to normal hepatic function, based on GMR [1, 5]: ~1.71 fold; AUC∞ compared to normal hepatic function, based on GMR [1, 5]: ~1.71 fold; AUClast,unbound compared to normal hepatic function, based on GMR [1, 5]: ~1.98 fold; Cmax,unbound compared to normal hepatic function, based on GMR [1, 5]: ~1.29 fold; AUC(0-inf) (clinical): 1290 ng·h/mL
